Results on two compounds are retold here after patent publication US20050192261A1, “Methods and reagents for the treatment of immunoinflammatory disorders” (priority 2003, published 2005).

Structures can show the parent of a compound that is named as a salt.

The subject of this test is TNFα secretion in white blood cells from human buffy coat stimulated with phorbol 12-myristate 13-acetate and ionomycin. Description: TNFα secretion assay.

Take `CC(CN1c2ccccc2Sc2ccccc21)N(C)C` (stereo not shown) [Promethazine HCl, promethazine]: the inhibition at 16 µM (read-out: percent inhibition of TNFα secretion, Promethazine HCl 16 μM, Nortriptyline HCl μM r5-r13: 0,0.26,0.52,1,2.1,4.2,8.3,17,33) amounted to 51.4%. Moreover, where the note is “read-out: percent inhibition of TNFα secretion, Promethazine HCl 31 μM, Nortriptyline HCl μM r5-r13: 0,0.26,0.52,1,2.1,4.2,8.3,17,33”, the inhibition at 31 µM was 81.1%.
With `Clc1ccc(Cn2c(CN3CCCC3)nc3ccccc32)cc1` [Clemizole HCl, clemizole], the inhibition at 14 µM (read-out: percent inhibition of TNFα secretion, Clemizole HCl 14 μM, Nortriptyline HCl μM r5-r13: 0,0.26,0.52,1,2.1,4.2,8.3,17,33) stood at 8.96%. Further, the inhibition at 28 µM (read-out: percent inhibition of TNFα secretion, Clemizole HCl 28 μM, Nortriptyline HCl μM r5-r13: 0,0.26,0.52,1,2.1,4.2,8.3,17,33) stood at 28.9%.

The inhibition is the share of the control response that was lost under treatment.
